The term Ki denotes the equilibrium dissociation constant of an inhibitor or competing ligand from its target. A lower Ki goes with a stronger hold on the target.

Amino acid sequences for entries named in this document (tags omitted). A change or cut given only in a name is not applied to a line headed by its entry.
UniProt P35372, whole entry, looked up: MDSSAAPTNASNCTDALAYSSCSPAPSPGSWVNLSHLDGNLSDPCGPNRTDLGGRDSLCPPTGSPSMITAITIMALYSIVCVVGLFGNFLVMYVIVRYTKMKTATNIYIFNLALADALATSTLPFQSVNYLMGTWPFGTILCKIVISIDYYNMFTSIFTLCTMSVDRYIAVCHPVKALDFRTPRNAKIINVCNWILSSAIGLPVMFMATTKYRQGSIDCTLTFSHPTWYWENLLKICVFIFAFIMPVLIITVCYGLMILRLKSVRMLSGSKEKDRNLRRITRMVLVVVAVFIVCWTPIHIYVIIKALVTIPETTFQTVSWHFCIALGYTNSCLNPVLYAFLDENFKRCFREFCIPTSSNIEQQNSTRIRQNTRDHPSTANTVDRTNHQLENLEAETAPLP
UniProt P41146: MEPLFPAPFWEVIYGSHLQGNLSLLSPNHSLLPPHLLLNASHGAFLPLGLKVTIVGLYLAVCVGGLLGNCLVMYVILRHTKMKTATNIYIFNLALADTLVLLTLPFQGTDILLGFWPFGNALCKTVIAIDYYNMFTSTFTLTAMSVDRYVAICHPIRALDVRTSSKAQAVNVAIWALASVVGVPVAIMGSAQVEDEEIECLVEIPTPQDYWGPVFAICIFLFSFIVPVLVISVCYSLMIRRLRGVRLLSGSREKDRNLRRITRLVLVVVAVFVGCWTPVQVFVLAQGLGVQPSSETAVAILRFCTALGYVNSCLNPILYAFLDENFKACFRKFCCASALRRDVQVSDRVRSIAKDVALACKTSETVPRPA

Assay [1] concerns the target Mu-type opioid receptor (Homo sapiens, UniProt P35372). Briefly: Receptor Binding Assay. The method, then:
MOP: The hMOP receptor binding assay was performed as homogeneous SPA-assay (scintillation proximity assay) using the assay buffer 50 mM TRIS-HCl (pH 7.4) supplemented with 0.052 mg/ml bovine serum albumin (Sigma-Aldrich Co. St. Louis. Mo.). The final assay volume (250 μl/well) included 1 nM of [N-allyl-2.3-3H]naloxone as ligand (PerkinElmer Lif

In assay [2] the target is Nociceptin receptor (Homo sapiens, UniProt P41146). Nature of the assay: Receptor Binding Assay. The procedure:
NOP:The hNOP receptor binding assay was performed as homogeneous SPA-assay (scintillation proximity assay) using the assay buffer 50 mM TRIS-HCl. 10 mM MgCl2. 1 mM EDTA (pH 7.4). The final assay volume (250 μl/well) included 0.5 nM of [leucyl-3H]nociceptin as ligand (PerkinElmer Life Sciences. Inc. Boston. Mass. USA). and either test compound in

Regarding `CN(C)[C@]1(c2ccccc2)CC[C@]2(CC1)CN(CCC(=O)NCC1(O)CCC1)C(=O)N2CC1CCC1`, in assay [1], the Ki was determined as 1.7 nM. For `CN(C)[C@]1(c2ccccc2)CC[C@]2(CC1)CN(CCC(=O)Nc1cccnn1)C(=O)N2CC1(O)CCC1`, the inhibition constant Ki in assay [2] stood at 4 nM. In the case of `CNC(=O)CCN1C[C@]2(CC[C@](c3ccccc3)(N(C)C)CC2)N(CC2CCC2)C1=O`, the Ki in assay [1] was 11.3 nM; in assay [2], 1.5 nM. In turn, `CN(C)[C@]1(c2ccccc2)CC[C@]2(CC1)CN(CC(C)(C)C(N)=O)C(=O)N2CC1CCC1` gave a Ki in assay [2] of 1 nM.

In turn, `COCCCN1C(=O)N(CCC(=O)NC(C)(C)C(N)=O)C[C@]12CC[C@](c1ccccc1)(N(C)C)CC2` registered an inhibition constant Ki in assay [1] of 175 nM. For the molecule `CN(C)[C@]1(c2ccccc2)CC[C@]2(CC1)CN(CCC(=O)NCc1ncco1)C(=O)N2CC1CCC1`, in assay [2], the affinity, expressed as Ki, was 3.6 nM. As to `CN(C)[C@]1(c2ccccc2)CC[C@]2(CC1)CN(CCC(=O)N1CCCC(O)C1)C(=O)N2CC1CCC1` (some centres not stated), in assay [2], the inhibition constant Ki is 2.6 nM. With `CN(C)[C@]1(c2ccccc2)CC[C@]2(CC1)CN(CCC(=O)Nc1ccc(S(C)(=O)=O)nc1)C(=O)N2CC1CCC1`, the inhibition constant (Ki) in assay [2] is 1.8 nM. With `COc1ccnc(NC(=O)CCN2C[C@]3(CC[C@](c4ccccc4)(N(C)C)CC3)N(CC3CCC3)C2=O)c1`, the figures for the Ki in assay [1] and in assay [2] were 51.5 nM and 2.6 nM, respectively.

`CN(C)[C@]1(c2ccccc2)CC[C@]2(CC1)CN(CC(C)(C)C(=O)NCC(N)=O)C(=O)N2CC1CCC1` had a Ki in assay [2] of 7.4 nM. Take `CN(C)C(=O)CCNC(=O)CCN1C[C@]2(CC[C@](c3ccccc3)(N(C)C)CC2)N(CC2CCC2)C1=O`: the inhibition constant (Ki) in assay [1] is 47.5 nM; in assay [2] it was 8.1 nM.

Regarding `COc1ccc(NC(=O)CCN2C[C@]3(CC[C@](c4ccccc4)(N(C)C)CC3)N(CC3CCC3)C2=O)nn1`, the affinity in assay [2] corresponds to a Ki of 1.9 nM. `COc1cncc(NC(=O)CCN2C[C@]3(CC[C@](c4ccccc4)(N(C)C)CC3)N(CC3CCC3)C2=O)n1` yielded a Ki in assay [2] of 2.2 nM.

In turn, `COc1ccc(NC(=O)CCN2C[C@]3(CC[C@](c4ccccc4)(N(C)C)CC3)N(CC3CCC3)C2=O)nc1` registered an inhibition constant Ki in assay [2] of 1 nM. In turn, `CN(C)[C@]1(c2ccccc2)CC[C@]2(CC1)CN(CCC(=O)Nc1cccnc1)C(=O)N2CC1(O)CCC1` returned a Ki in assay [2] of 4.2 nM. Regarding `CCN[C@]1(c2ccccc2)CC[C@]2(CC1)CN(CC(C)(C)C(N)=O)C(=O)N2`, in assay [2], the affinity, expressed as Ki, was 1 nM. Still for that read-out and setting: with `COc1cc(NC(=O)CCN2C[C@]3(CC[C@](c4ccccc4)(N(C)C)CC3)N(CC3CCC3)C2=O)ccn1` the figure was 2.6 nM; with `CNC1(c2ccccc2)CCC2(CC1)CN(CC(C)(C)C(N)=O)C(=O)N2CC1CCC1` (configuration not stated), 17.5 nM; with `COc1cnccc1NC(=O)CCN1C[C@]2(CC[C@](c3ccccc3)(N(C)C)CC2)N(CC2CCC2)C1=O`, 1.2 nM. In assay [1], `CNC(=O)CCN1C[C@]2(CC[C@](c3ccccc3)(N(C)CC(C)C)CC2)N(CC2CCC2)C1=O` displayed a Ki of 4150 nM. `CN(C)[C@]1(c2ccccc2)CC[C@]2(CC1)CN(CCC(=O)Nc1ccc(S(C)(=O)=O)cn1)C(=O)N2CC1CCC1` had an inhibition constant Ki in assay [2] of 2.1 nM. As for `CN(C)[C@]1(c2ccccc2)CC[C@]2(CC1)CN(CCC(=O)Nc1cncnc1)C(=O)N2CC1(O)CCC1`, affinity in assay [2] was put at a Ki of 3.6 nM. In the case of `COCCCN1C(=O)N(CCC(=O)NCCS(C)(=O)=O)C[C@]12CC[C@](c1ccccc1)(N(C)C)CC2`, the Ki in assay [1] and in assay [2] was 130 nM each time. `CN[C@]1(c2ccccc2)CC[C@]2(CC1)CN(CC(C)(C)C(N)=O)C(=O)N2CC1(O)CCC1` returned an inhibitory constant (Ki) in assay [2] of 285 nM. As to `COCCNC(=O)CCN1C[C@]2(CC[C@](c3ccccc3)(N(C)C)CC2)N(CC2(O)CCC2)C1=O`, the inhibition constant (Ki) came out at 58.5 nM in assay [1] and 16.5 nM in assay [2]. As to `COc1ccc(NC(=O)CCN2C[C@]3(CC[C@](c4ccccc4)(N(C)C)CC3)N(CC3CCC3)C2=O)cn1`, the inhibition constant (Ki) in assay [1] amounted to 10 nM; in assay [2], 1.1 nM. As to `CN(C)[C@]1(c2ccccc2)CC[C@]2(CC1)CN(CCC(N)=O)C(=O)N2CC1(O)CCC1`, in assay [2], the affinity, expressed as Ki, was 12.2 nM. In turn, `CN(C)[C@]1(c2ccccc2)CC[C@]2(CC1)CN(CCC(=O)N1CCn3ncnc3C1)C(=O)N2CC1CCC1` gave a Ki in assay [2] of 3 nM. Consider `CN(C)[C@]1(c2ccccc2)CC[C@]2(CC1)CN(CC(C)(C)C(=O)N1CCOCC1)C(=O)N2CC1(O)CCC1`, for which the inhibitory constant (Ki) came out at 670 nM in assay [1] and 7 nM in assay [2].

Regarding `COc1ccnc(NC(=O)CCN2C[C@]3(CC[C@](c4ccccc4)(N(C)C)CC3)N(CC3(O)CCC3)C2=O)n1`, affinity in assay [2] was put at a Ki of 22.5 nM. On the same count and under the same terms, with `CN[C@]1(c2ccccc2)CC[C@]2(CC1)CN(CC(C)(C)C(=O)NCC(N)=O)C(=O)N2CC1CCC1` the figure was 75.5 nM. The molecule `CN(C)[C@]1(c2ccccc2)CC[C@]2(CC1)CN(CC(C)(C)C(N)=O)C(=O)N2CC1(C#N)CCC1` displayed a Ki in assay [2] of 0.5 nM. As to `CN(C)[C@]1(c2ccccc2)CC[C@]2(CC1)CN(CCC(=O)Nc1cnc(C#N)nc1)C(=O)N2CC1(O)CCC1`, the affinity in assay [2], expressed as Ki, was 3.1 nM. On to `CN(C)[C@]1(c2ccccc2)CC[C@]2(CC1)CN(CCC(=O)Nc1nccc(O)n1)C(=O)N2CC1(O)CCC1`, for which, in assay [2], the inhibition constant (Ki) amounted to 9.4 nM. `CN(C)[C@]1(c2ccccc2)CC[C@]2(CC1)CN(CCC(=O)NCc1cnco1)C(=O)N2CC1CCC1` showed a Ki in assay [1] of 28 nM.

The values above are taken from BindingDB's records for US10793528.
